Test results published in publication PMC4821887, “Identification of chemicals that mimic transcriptional changes associated with autism, brain aging and neurodegeneration” (Nature Communications, 2016).

Tested on: mouse cortical neuron cultures

CCCSP(=O)(OCC)SCCC [Ethoprop]
% Dead cells (vehicle subtracted): 0.4679%
